Assays:
[1] = system: p6T colorectal cancer organoids having a mutant KRAS; experiment: Validation of synthetic lethality in patient-derived organoid p6T; assay type: cell-based, human
Procedure: (§1) Tumor organoids from colorectal cancer containing a Kras12D oncogenic mutation were treated for three days, with different concentrations of one of a 420 anti-cancer compound library (SellectChem), in the presence and absence of a combination of 1 μM selumetinib and 1 μM afatinib to inhibit MEK, EGFR and ERBB2. The induction of apoptosis was measured by semi-automated imaging.

[2] = system: p9T colorectal cancer organoids having a mutant KRAS; experiment: Validation of synthetic lethality in patient-derived organoid p9T; assay type: cell-based, human; conditions: organoid printed as p19T
Procedure: as §1

## CC(=O)O[C@@]12CO[C@@H]1C[C@H](O)[C@@]1(C)C(=O)[C@H](O)C3=C(C)[C@@H](OC(=O)[C@H](O)[C@@H](NC(=O)OC(C)(C)C)c4ccccc4)C[C@@](O)([C@@H](OC(=O)c4ccccc4)[C@H]21)C3(C)C [Docetaxel]
[1]
  synergy with afatinib + selumetinib in p6T: very synergistic

## CCC1=C[C@@H]2CN(C1)Cc1c([nH]c3ccccc13)[C@@](C(=O)OC)(c1cc3c(cc1OC)N(C)[C@H]1[C@@](O)(C(=O)OC)[C@H](OC(C)=O)[C@]4(CC)C=CCN5CC[C@]31[C@@H]54)C2 [Vinorelbine]
[2]
  synergy with afatinib + selumetinib in p19T: very synergistic
